Compound activity: PubChem BioAssay, National Center for Advancing Translational Sciences (NCATS)
Shown are actives, neighbours in structure and some others; about 3.7% of the full set was active somewhere.
ClpP mod: qHTS Assay for Activators of ClpP; ATP-dependent Clp protease proteolytic subunit (Bacillus subtilis (strain 168)), P80244; purified B. subtilis ClpP, FRET peptide cleavage, 20 min; Potency, µM (doses to about 57.5 µM); hit rate 1.9% among 340,000; AID 651965, 2013; active = well fitted falling curve with a large enough effect; inconclusive = small, poorly fitted or top-dose-only effect; inactive = no such curve, though single readings can be large or run the other way; also: the source files actives as falling curves though it sought activators and does not explain the sign; nearly all actives have a fitted effect of over 65% in size
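ClpP 10 microg/mL final, pH 8 Tris/KCl buffer with BSA, glycerol, Tween-20; compound pinned in; FRET-FV substrate; RT 20 min; Ex320/Em430; ΔFRET vs ADEP 5.8 microM, DMSO, no enzyme.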
A549 viability: kills or reduces viability of A549 cells in Nrf2 counter-screen. A549 ARE-Fluc cells, CellTiter-Fluor viability, 18-24 h. Potency, µM (titrated, usually from 46 µM), usual class: inhibitors. hit rate 0.16% among 390,000
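A549 ARE_Fluc cells in 5% FBS OPTI-MEM were exposed to compounds in concentration-response for 18-24 h at 37 deg C. Viability was read by CellTiter-Fluor fluorescence (Ex 405/Em 525) after 30 min, before the luciferase read.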
Nrf2 ARE act: activates Nrf2 signaling | Potency, µM (series often up to 46.1 µM), hits mostly activators | AREc32 ARE-luciferase reporter (MCF7-derived line), luminescence, 24 h | hit rate 0.31% among 410,000; also: nearly all actives have a fitted effect of over 65% in size
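AREc32_Fluc, 1000 cells/well, OPTI-MEM + 5% FBS, o/n 37 deg C 5% CO2; 23 nL cpd by pin tool, 24 hr; Steady-Glo 30 min RT, luminescence.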
IL2 activator: activators of IL-2; IL-2 activation reporter assay, cell-based qHTS; stimulated with anti-CD3/CD4/CD28 beads; in transgenic mouse T cells; activation, % (series mostly up to about 46 µM); hit rate 0.065% among 360,000; AID 652025; in the data active = activation above about 50%; inconclusive = mostly about 30% to 49%
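Readout: EGFP and DsRed signals by fluorescent plate cytometry. Unstimulated transgenic mouse T cells received compound 60 min before antibody-bead stimulation, then incubated 18 h at 37 degrees C.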
Nrf2 inh: Nrf2 pathway inhibition | AID 504444 | A549 ARE-Fluc reporter, luciferase luminescence, 18-24 h | Potency, µM (titrated, usually from 46 µM), hits mostly inhibitors | hit rate 2.1% among 360,000; also: nearly all actives have a fitted effect of over 60% in size
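Nrf2 function is reported as luminescence of an ARE-controlled luciferase in A549 cells. Compounds were tested at several concentrations, and a CellTiter-Fluor read on the same wells flagged cytotoxicity.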
miR-21 reporter: raises the signal of a miR-21 reporter; HeLa miR-21 FLuc reporter, luciferase, 48 h; Potency, µM (top dose mostly 38.3 µM); AID 2288; 340,000 tested, under 10 active; active = well fitted rising curve with a large enough effect; inconclusive = small, poorly fitted or top-dose-only effect; inactive = no such curve, though single readings can be large or run the other way;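 note: miR-21 action dims this reporter so a rising signal means less miR-21 action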
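HeLa cells endogenously expressing miR-21, stably carrying CMV-driven firefly luciferase with a downstream miR-21 binding site, 2000 cells/well. Titrations up to approximately 40 uM, 48 hours; luciferase luminescence read.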
Each line names hits and unclear results; the compound was inactive in the other large screens. Unless noted, calls follow the shape of the dose curve; as a rule, active = well fitted curve in the direction sought with a large enough effect; inconclusive = small, poorly fitted or top-dose-only effect, or another doubt; inactive = no such curve, though single readings can be large; an effect the other way counts as inactive or inconclusive.

The chains behind the UniProt entries cited, without tags or fusion partners.
ATP-dependent Clp protease proteolytic subunit (Bacillus subtilis (strain 168)), P80244, UniProt P80244, whole entry, looked up: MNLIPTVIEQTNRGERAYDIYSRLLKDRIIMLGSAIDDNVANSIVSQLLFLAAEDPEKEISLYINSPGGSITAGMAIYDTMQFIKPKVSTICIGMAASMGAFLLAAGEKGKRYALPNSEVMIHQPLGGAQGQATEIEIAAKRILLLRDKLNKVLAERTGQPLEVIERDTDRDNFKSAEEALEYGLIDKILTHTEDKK

N#Cc1cccc(NS(=O)(=O)c2ccc3c(c2)CCC(=O)N3)c1	none (no result: ClpP mod, Nrf2 ARE act, IL2 activator, miR-21 reporter)
CCc1ccccc1OCCSc1nnc(-c2cc(OC)c(OC)c(OC)c2)o1	ClpP mod 25µM (no result: IL2 activator)
COc1cc(-c2nnc(SCC3(c4ccc(Br)cc4)OCCO3)o2)cc(OC)c1OC	ClpP mod 28µM, Nrf2 inh inconclusive
COc1cc(-c2nnc(SCC(=O)/C(C#N)=C(\C)N)o2)cc(OC)c1OC	ClpP mod 14µM
COc1cc(-c2n[nH]c(=O)o2)cc(OC)c1OC	ClpP mod 16µM (no result: Nrf2 inh)
CCCOc1ccc(-c2cccc(NS(=O)(=O)c3cccs3)c2)nn1	none (no result: IL2 activator, Nrf2 inh)
O=C1NCCN(Cc2ccc(F)cc2)C1=O	none (no result: IL2 activator, Nrf2 inh)
COc1cc(-c2nnc(-c3ccccc3)o2)cc(OC)c1OC	ClpP mod inconclusive
COc1cc(-c2nnc(-c3cc(OC)c(OC)c(OC)c3)o2)cc(OC)c1OC	ClpP mod 25µM (no result: Nrf2 inh)
CCCn1c(CC)nc([N+](=O)[O-])c1S(=O)(=O)c1ccccc1	A549 viability inconclusive, Nrf2 inh 21µM, miR-21 reporter inconclusive
Cn1cnc([N+](=O)[O-])c1S(=O)(=O)c1cccc(Cl)c1	miR-21 reporter inconclusive
O=C1CCc2cc(S(=O)(=O)Nc3ccncc3)ccc2N1	none (no result: ClpP mod, Nrf2 ARE act, IL2 activator, miR-21 reporter)
Cc1ccc2nc(SC(C)C(=O)NC3CCCC3)[nH]c2c1 (centres undefined)	none (no result: ClpP mod, miR-21 reporter)
Cc1ccc2nc(SC(C)C(=O)Nc3cccc([N+](=O)[O-])c3)[nH]c2c1 (centres undefined)	Nrf2 inh 21µM
CC1CCN(S(=O)(=O)c2ccc3c(c2)C(=NO)c2cc(S(=O)(=O)N4CCC(C)CC4)ccc2-3)CC1	A549 viability 5.2µM, Nrf2 inh 4.1µM
O=S(=O)(c1ccc2c(c1)C(=NO)c1cc(S(=O)(=O)N3CCCCC3)ccc1-2)N1CCCCC1	ClpP mod 28µM, A549 viability inconclusive, Nrf2 inh inconclusive, miR-21 reporter inconclusive
O=C(O)COc1ccc(-c2nccc(-c3ccccn3)n2)cc1	Nrf2 inh 2.1µM, miR-21 reporter inconclusive (no result: ClpP mod)
Nc1c(C(=O)NCCN2CCOCC2)c2nc3ccccc3nc2n1-c1ccccc1	ClpP mod 11µM, A549 viability inconclusive
Nc1ccc(-n2c(N)c(C(=O)NCc3ccc4c(c3)OCO4)c3nc4ccccc4nc32)cc1	Nrf2 inh inconclusive (no result: miR-21 reporter)
Nc1c(C(=O)NCc2ccccc2)c2nc3ccccc3nc2n1-c1ccc2c(c1)OCO2	ClpP mod 22µM, Nrf2 inh inconclusive
COc1ccccc1CNC(=O)c1c(N)n(CCCN2CCOCC2)c2nc3ccccc3nc12	ClpP mod inconclusive, A549 viability inconclusive, Nrf2 inh 18µM
Nc1c(C(=O)NCCN2CCOCC2)c2nc3ccccc3nc2n1CCc1ccccc1	ClpP mod inconclusive, Nrf2 inh 15µM
C(=C\c1nccc2ccccc12)/c1ccc(N2CCOCC2)cc1	none (no result: A549 viability, Nrf2 ARE act, IL2 activator, Nrf2 inh, miR-21 reporter)
CCc1nc2ccccc2c(C(=O)OCC(=O)NCc2ccc3c(c2)OCO3)c1C	none
CCCc1nc2ccccc2c(C(=O)OCC(=O)NCc2ccc3c(c2)OCO3)c1CC	A549 viability inconclusive, Nrf2 inh 21µM
Cc1oc2c(CN3CCOCC3)c(O)ccc2c(=O)c1-c1ccc(Br)cc1	ClpP mod 14µM
CCN1CCN(Cc2c(O)ccc3c(=O)c(-c4ccc(OC)c(OC)c4)c(C)oc23)CC1	ClpP mod 28µM
COc1ccc(-n2c(=O)c3ccc(C(=O)NCc4ccc(C)cc4)cc3n(CC(=O)Nc3cccc(F)c3)c2=O)cc1	ClpP mod inconclusive (no result: IL2 activator)
COc1ccc(C)cc1NC(=O)CC1NCCNC1=O (centres undefined)	none (no result: IL2 activator)
CC(C)(C)c1ccc(-c2nnc(SCCC#N)n2C2CCCC2)cc1	A549 viability inconclusive, Nrf2 inh 21µM
Cn1c(SCCC#N)nnc1-c1ccc(F)cc1	none (no result: ClpP mod, A549 viability, Nrf2 ARE act, IL2 activator, Nrf2 inh)
COc1ccc(-c2cc(C(F)(F)F)nc(SCC(=O)NCc3ccco3)n2)cc1OC	ClpP mod inconclusive
COc1ccc(-c2cc(C(F)(F)F)nc(SCC(=O)NCc3cccs3)n2)cc1	ClpP mod 35µM, Nrf2 inh inconclusive
COc1ccc(-c2cc(C(F)(F)F)nc(SCC(=O)NCc3cnn(C)c3C)n2)cc1OC	ClpP mod 28µM
COc1ccc(-c2cc(C(F)(F)F)nc(SCCC(=O)N3CCOCC3)n2)cc1	ClpP mod 25µM
COc1ccccc1CNC(=O)CSc1nc(-c2ccc(OC)c(OC)c2)cc(C(F)(F)F)n1	ClpP mod 28µM (no result: IL2 activator)
O=C(Cc1ccc(OCc2ccccc2)cc1)NO	none (no result: A549 viability, Nrf2 ARE act, IL2 activator, Nrf2 inh, miR-21 reporter)
COC(=O)c1ccccc1NC(=O)c1cnn2c1NC(=C1CC1)C=C2C(F)F	none (no result: A549 viability, Nrf2 ARE act, IL2 activator, Nrf2 inh, miR-21 reporter)
Cc1cc(C)cc(OCC(=O)NNC(=O)c2ccccn2)c1	Nrf2 inh 10µM (no result: miR-21 reporter)
O=C(c1ccc(Cl)c(S(=O)(=O)N2CCOCC2)c1)N(Cc1nnc(-c2ccccc2Cl)o1)C1CC1	ClpP mod 22µM (no result: miR-21 reporter)
O=C(c1cccc(S(=O)(=O)N2CCOCC2)c1)N(Cc1nnc(-c2ccccc2Cl)o1)C1CC1	none (no result: ClpP mod, miR-21 reporter)
Cc1cc2c(s1)c1cnn(Cc3cccc(C(F)(F)F)c3)c(=O)c1n2C	none (no result: ClpP mod, Nrf2 ARE act, IL2 activator, miR-21 reporter)
Cc1cc(C(=O)CN2C(=O)C(=O)N(C3CCCC3)C2=O)c(C)n1CCc1ccccc1	Nrf2 inh 18µM (no result: miR-21 reporter)
C=CCN(Cc1ccc(OC)c(OC)c1)C(=O)c1cc2cc(F)ccc2[nH]1	A549 viability inconclusive, Nrf2 inh 23µM
COC(=O)c1ccccc1NC(=O)c1ccc2c(c1)CCN2S(=O)(=O)c1ccc(Cl)cc1	none (no result: IL2 activator)
CCC(C(=O)Nc1ccc(C(C)=O)cc1)n1cnc2nc3c(cc2c1=O)CCCC3 (centres undefined)	none (no result: IL2 activator, Nrf2 inh)
COc1cc2c(c(O)c1OC)C(=O)C(OC)CCC2 (centres undefined)	ClpP mod 28µM
CC(C(=O)NC1CCCC1)N(C(=O)c1ccc(-c2ccccc2)[nH]1)c1ccccc1F (centres undefined)	ClpP mod 32µM, Nrf2 inh inconclusive
Cc1oc2ncnc(N)c2c1C	none
Cc1ccc(-c2oc3ncnc(N)c3c2-c2ccc(C)cc2)cc1	ClpP mod 28µM, Nrf2 inh inconclusive
COc1cc(Cl)ccc1OCc1cc(C(=O)NCC(C)c2ccccc2)no1 (centres undefined)	none
CN(Cc1nccn1C)C(=O)c1cc(COc2cccc(C(F)(F)F)c2)on1	A549 viability inconclusive
COCC1CCCN(C(=O)c2cc(COc3ccc4ncccc4c3)on2)C1 (centres undefined)	Nrf2 inh 8.2µM
CCOC(=O)N1CCN(C(=O)c2cc(COc3cccc(C(C)=O)c3)on2)CC1	Nrf2 inh inconclusive
